Molecular target: mTOR (Homo sapiens, UniProt P42345)
Test: Enzyme - mTOR Kinase Assay (Echo);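 further: enzyme expressed in HEK293 cells, 2 h incubation at room temperature, read-out is phosphorylation of a biotinylated peptide substrate detected with an anti-phospho p70 S6 Kinase (T389) antibody, inhibition lowers signal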
Type: biochemical

SMILES: COc1cc(-c2nc(N3CCOCC3)cc(C3(S(C)(=O)=O)CC3)n2)c2cc[nH]c2c1 [Example 1.04, 6-Methoxy-4-{4-[1-(methylsulfonyl)cyclopropyl]-6-morpholin-4-ylpyrimidin-2-yl}-1H-indole]
- IC50: 55.2 nM
